Assay results reported in PubChem BioAssay AID823 (SRMLSC, 2007).
Only a part is listed here, and it is no random draw. Inconclusive results are not listed. The source made the active and inactive calls.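 The calls were made as follows: active = cell viability at or below a set limit in both duplicate runs, the limit being the all-compound median minus 4 SD (cut at about 23% in these data, passing the limit was not always enough); inconclusive = no clear call, values can overlap the other calls; inactive = the rest.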

Experiment: viability of HCT116 without oncogenic beta-catenin – human colon tumor cells, pilot screen (AID 823);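 also: 0% = wells killed by 20 µM Hyamine and 100% = untreated DMSO cell wells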
Settings: HCT116 beta-catenin knockout viability, CellTiter-Glo, 60 h; at 10 µM; stronger effect = lower value
For `Fc1ccccc1NC1CCN(Cc2ccccc2)CC1`, the viability was inactive: 83.9%.
